The values that follow are results of earlier work, collected in patent US20160165928A1, “METHODS OF REDUCING METHANE EMISSION DERIVED FROM RUMINAL FERMENTATION WHILE SIMULTANEOUSLY REDUCING RISK OF NITRATE INTOXICATION” (Grasp Indústria e Comércio Ltda., priority 2011, published 2016).

For this data set, the system named is ruminal accumulation of nitrite. The settings on record: in vivo.

For `O=S(=O)([O-])[O-].[Na+].[Na+]` [sodium sulfate], the intoxication risks result was “minimization of intoxication risks”.
